Data reported in patent publication US8440677B2, “Atropisomers of 2-purinyl-3-tolyl-quinazolinone derivatives and methods of use” (Gilead Calistoga LLC, priority 2009, dated 2013).

Experiment: in vivo
Settings: female, Sprague Dawley, rat, plasma, iv, 1.5 mg/kg, female SD rats, single bolus i.v.

Work on Cc1ccccc1-n1c(Cn2cnc3c(N)ncnc32)nc2cccc(C)c2c1=O (single isomer, unassigned) [Compound 1(R), 2-((6-amino-9H-purin-9-yl)methyl)-5-methyl-3-o-tolylquinazolin-4(3H)-one] yielded an AUC (AUCall) of 1010 ± 55 ng·h/mL, a clearance (CL) of 24.6 mL/min/kg and a half-life (T½) of 7 ± 1.1 h. For the same compound, the Vd (Vz (volume of the terminal phase)) was 14.8 L/kg.
